Assay results as given in patent US8026222B2, “Methods of use of glycomimetics with replacements for hexoses and n-acetyl hexosamines” (GlycoMimetics, Inc., priority 2007, dated 2011).

System: human umbilical vein endothelial cells (HUVECS)
Experiment: neutrophil rolling on endothelial cell monolayers under flow conditions (rolling index)
Assay type: cell-based
Conditions: HUVEC monolayers incubated in glycated serum protein for 4 hours, perfused with human neutrophils (FIG. 18, FIG. 19)
Protocol: Glycated serum proteins induce neutrophil rolling on endothelial cells in an in vitro assay of cell adhesion under flow conditions. Monolayers of human umbilical vein endothelial cells (HUVECS) were incubated in glycated serum proteins (FIG. 18, glycated albumin, Gly-HSA or FIG. 19, glycated hemoglobin, Gly-Hb) for 4 hours. Monolayers were then inserted into a flow chamber and the chamber was perfused with human neutrophils (10^6 cell/ml) at a flow rate corresponding to a wall shear stress of 0.9 dynes/cm^2. Digital images were acquired and analyzed to determine the rolling index (RI) which is a measure of the degree of neutrophil rolling on the endothelial cell monolayer. Glycated HSA yielded about a 6-fold increase in rolling while glycated hemoglobin yielded approximately a 2.8-fold increase. At 50 μM, about 90% of the cell rolling is inhibited by the test compound.

Question: Which “increase in neutrophil rolling (rolling index)” value does the source give for “Glycated HSA: glycated human serum albumin used to stimulate endothelial cells” here?
Answer: ~6 fold
